Source: patent US12435128B2, “Method for predicting therapeutic effect of LSD1 inhibitor based on expression of INSM1” (TAIHO PHARMACEUTICAL CO., LTD., priority 2017, dated 2025)

System: NCI-H146 cells (human small-cell lung cancer cell lines)
Experiment: Cell-growth inhibition test: NCI-H146 cells
Format: cell-based
Method: Under the following conditions, an in vitro cell-growth inhibition test was performed with respect to HEL cells (human acute myelocytic leukemia cell lines), NCI-H1417 cells (human small-cell lung cancer cell lines), and NCI-H146 cells (human small-cell lung cancer cell lines).
The cells with the Example compound or with dimethylsulfoxide alone were cultured at 37° C. in a 5% carbon-dioxide-containing incubator for 5 days (HEL cells) or 10 days (NCI-H1417 cells and NCI-H146 cells). After culture, the plate was allowed to stand at room temperature for 30 minutes, and 100 μL of the supernatant was removed from each well to leave 100 μL of the cell culture solution. To each well containing the remaining 100 μL of the cell culture solution, the same amount of CellTiter-Glo 2.0 Assay (Promega, Cat #: G9242) was added. The microplate was shaken with a plate mixer for 1 minute and then allowed to stand in a dark place for 10 minutes. Thereafter, the luminescence intensity of viable cells in each well was measured using a microplate reader (PerkinElmer, EnSpire). […] Cell growth rate(%)=T/C×100 • T: The luminescence intensity in a well to which the test compound was added (count per second) • C: The luminescence intensity in a well to which dimethylsulfoxide alone was added (count per second)

Structure (SMILES): CC(C)(O)Cn1nc(Br)c2cc(-c3ccc(C(=O)N4[C@@H]5CC[C@H]4C[C@@H](N)C5)cc3-c3ccc(C#N)c(F)c3)c(F)cc21 [Example 178, 5′-((3-endo)-3-amino-8-azabicyclo[3.2.1]octane-8-carbonyl)-2′-(3-bromo-6-fluoro-1-(2-hydroxy-2-methylpropyl)-1H-indazol-5-yl)-3-fluoro-[1,1′-biphenyl]-4-carbonitrile]
- IC50: 1.22 nM
